B1: S-adenosylmethionine-dependent nucleotide dehydratase RSAD2 (Homo sapiens), Q8WXG1 (parent)
chain: MWVLTPAAFAGKLLSVFRQPLSSLWRSLVPLFCWLRATFWLLATKRRKQQLVLRGPDETKEEEEDPPLPTTPTSVNYHFTRQCNYKCGFCFHTAKTSFVLPLEEAKRGLLLLKEAGMEKINFSGGEPFLQDRGEYLGKLVRFCKVELRLPSVSIVSNGSLIRERWFQNYGEYLDILAISCDSFDEEVNVLIGRGQGKKNHVENLQKLRRWCRDYRVAFKINSVINRFNVEEDMTEQIKALNPVRWKVFQCLLIEGENCGEDALREAERFVIGDEEFERFLERHKEVSCLVPESNQKMKDSYLILDEYMRFLNCRKGRKDPSKSILDVGVEEAIKFSGFDEKMFLKRGGKYIWSKADLKLDW
partner: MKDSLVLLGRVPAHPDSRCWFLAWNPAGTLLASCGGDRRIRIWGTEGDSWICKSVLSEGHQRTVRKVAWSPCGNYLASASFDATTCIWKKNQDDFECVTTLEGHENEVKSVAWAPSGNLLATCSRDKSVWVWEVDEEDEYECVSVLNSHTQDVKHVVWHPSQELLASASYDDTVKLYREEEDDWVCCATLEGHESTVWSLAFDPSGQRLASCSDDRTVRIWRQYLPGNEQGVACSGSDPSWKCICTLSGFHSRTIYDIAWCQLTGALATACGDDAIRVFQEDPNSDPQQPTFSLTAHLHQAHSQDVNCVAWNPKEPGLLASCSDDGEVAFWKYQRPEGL

Variants of: B1
Settings: with ciao1_human CIAO1, O76071

Variant	effect of a mutation on the interaction
MWVLTPAAFAGKLLSVFRQPLSSLWRSLVPLFCWLRATFWLLATKRRKQQLVLRGPDETKEEEEDPPLPTTPTSVNYHFTRQANYKAGFAFHTAKTSFVLPLEEAKRGLLLLKEAGMEKINFSGGEPFLQDRGEYLGKLVRFCKVELRLPSVSIVSNGSLIRERWFQNYGEYLDILAISCDSFDEEVNVLIGRGQGKKNHVENLQKLRRWCRDYRVAFKINSVINRFNVEEDMTEQIKALNPVRWKVFQCLLIEGENCGEDALREAERFVIGDEEFERFLERHKEVSCLVPESNQKMKDSYLILDEYMRFLNCRKGRKDPSKSILDVGVEEAIKFSGFDEKMFLKRGGKYIWSKADLKLDW [C83A;C87A;C90A]	with no effect
MWVLTPAAFAGKLLSVFRQPLSSLWRSLVPLFCWLRATFWLLATKRRKQQLVLRGPDETKEEEEDPPLPTTPTSVNYHFTRQCNYKCGFCFHTAKTSFVLPLEEAKRGLLLLKEAGMEKINFSGGEPFLQDRGEYLGKLVRFCKVELRLPSVSIVSNGSLIRERWFQNYGEYLDILAISCDSFDEEVNVLIGRGQGKKNHVENLQKLRRWCRDYRVAFKINSVINRFNVEEDMTEQIKALNPVRWKVFQCLLIEGENCGEDALREAERFVIGDEEFERFLERHKEVSCLVPESNQKMKDSYLILDEYMRFLNCRKGRKDPSKSILDVGVEEAIKFSGFDEKMFLKRGGKYIWSKADLKLDA [W361A]	disrupting interaction strength
